For 2 substances, IC50 results are on record in US6566355B1 (Hoffmann-La Roche Inc., priority 1991, dated 2003).

Sequences of proteins named here, by UniProt entry; tags and fusion partners are left off. Residues count along the entry.
UniProt P05193, 21-381: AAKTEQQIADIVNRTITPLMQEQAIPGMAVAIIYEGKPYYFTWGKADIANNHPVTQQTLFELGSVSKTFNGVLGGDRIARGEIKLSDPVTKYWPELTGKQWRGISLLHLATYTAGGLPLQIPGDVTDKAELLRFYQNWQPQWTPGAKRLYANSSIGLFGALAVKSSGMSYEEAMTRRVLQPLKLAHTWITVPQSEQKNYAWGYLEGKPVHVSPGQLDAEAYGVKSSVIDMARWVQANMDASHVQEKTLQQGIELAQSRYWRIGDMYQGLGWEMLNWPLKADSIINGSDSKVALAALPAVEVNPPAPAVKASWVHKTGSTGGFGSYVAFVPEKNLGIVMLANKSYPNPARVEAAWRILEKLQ

This assay has as its target T1, β-lactamase (Citrobacter freundii, UniProt P05193).
T1 construct: Various β-lactamases can be isolated from penicillin- or cephalosporin-resistant bacterial strains such as; endogenous in cells; host or cells: Citrobacter freundii 1203 (enzyme purified from the crude cell extract, after ampicillin induction when necessary)
Type of assay: biochemical. To be noted: isolated β-lactamase of Citrobacter freundii; substrate nitrocefin 0.1 mM; 15 minutes pre-incubation with inhibitor; 37° C., pH 7.0. The method, then: A. Isolation of the β-lactamases
Various β-lactamases can be isolated from penicillin- or cephalosporin-resistant bacterial strains such as Klebsiella pneumoniae NCTC 418, Proteus vulgaris 1028, Bacillus licheniformis 749/C, Escherichia coli SN01 and Citrobacter freundii 1203. For this purpose, the corresponding strains are cultivated in Tryptic Soy Broth (Difco) and harvested by centrifugation in the last logarithmic growth phase (when necessary 50-100 mg/l of ampicillin are added to the medium towards the end of the log-phase in order to induce the β-lactamase). The thus-obtained bacterial mass is treated with 20 mM Tris-HCl buffer (pH 7.0); the cells are broken open with a French press while cooling. The mixture is centrifuged (20,000 r/min.) for 20-30 minutes and a clear crude extract is obtained.
B. Determination of the β-lactamase activity
The determination of the activity of the isolated β-lactamases can be carried out according to the method of O'Callaghan, C. H. et al. [Antimicr. Ag. Chemother., 1, 283-288 (1972)] using the chromogenic cephalosporin nitrocefin (87/312 from Glaxo). […] The cleavage of the substrate, which is accompanied by a change in colour, is effected at 37° C. and is followed quantitatively at 482 nm using a spectral photometer. […]

As usually defined, the IC50 is the concentration needed to halve the response being measured. On to “(1S,5R)-(E)-3-Phenyl-acryloyl-2,6-diazabicyclo[3.2.0]heptane-6-sulphonic acid sodium salt [11(a)]”, for which the IC50 was determined as 76 nM.

Regarding “(1S,5R)-2-(Furan-2-ylcarbonyl-carbazoyl)-7-oxo-2,6-diazabicyclo[3.2.0]heptane-6-sulphonic acid sodium salt [17(q)]”, the IC50 is 576 nM.
